The record followed here is ChEMBL document CHEMBL4130539, “Novel ureidopropanamide based N-formyl peptide receptor 2 (FPR2) agonists with potential application for central nervous system disorders characterized by neuroinflammation” (Eur J Med Chem, 2017).

Active and inactive are the calls of the source. No cut-off for these calls is given here.

Experiment [1] has as its target T1, fMet-Leu-Phe receptor (Homo sapiens) (UniProt P21462).
T1 sequence (whole entry): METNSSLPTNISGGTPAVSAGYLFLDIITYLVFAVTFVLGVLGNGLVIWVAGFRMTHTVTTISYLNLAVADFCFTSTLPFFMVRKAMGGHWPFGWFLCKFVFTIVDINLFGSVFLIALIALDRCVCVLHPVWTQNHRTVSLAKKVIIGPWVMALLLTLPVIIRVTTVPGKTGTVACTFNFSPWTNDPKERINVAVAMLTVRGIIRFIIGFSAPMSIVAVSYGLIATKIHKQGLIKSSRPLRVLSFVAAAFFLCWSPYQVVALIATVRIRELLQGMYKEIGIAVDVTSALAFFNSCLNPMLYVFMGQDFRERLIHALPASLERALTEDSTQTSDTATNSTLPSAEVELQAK
The experiment can be described thus: Agonist activity at human FPR1 expressed in human HL60 cells assessed as induction of calcium mobilization measured every 5 secs for 240 secs by Fluo-4-AM dye based fluorometric method relative to fMLF. The experiment is classed as functional, cell-based.

Experiment [2] addresses T2, N-formyl peptide receptor 2 (Homo sapiens) (UniProt P25090).
T2 sequence (whole entry): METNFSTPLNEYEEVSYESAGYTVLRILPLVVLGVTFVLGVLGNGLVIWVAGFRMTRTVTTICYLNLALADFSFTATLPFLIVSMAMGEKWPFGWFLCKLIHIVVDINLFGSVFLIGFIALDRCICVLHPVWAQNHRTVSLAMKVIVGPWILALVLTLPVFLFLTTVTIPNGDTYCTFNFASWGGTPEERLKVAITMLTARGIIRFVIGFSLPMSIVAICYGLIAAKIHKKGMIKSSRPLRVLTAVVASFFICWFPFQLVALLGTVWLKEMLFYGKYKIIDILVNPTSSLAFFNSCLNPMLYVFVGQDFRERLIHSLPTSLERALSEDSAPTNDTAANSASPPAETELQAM
The experiment can be described thus: Agonist activity at FPR2 in human neutrophils assessed as induction of calcium mobilization measured every 5 secs for 240 secs by Fluo-4-AM dye based fluorometric method relative to fMLF. In general terms: A change in cytosolic calcium serves as a functional read-out for many receptors and channels.

For experiment [3], the target named is T2, N-formyl peptide receptor 2 (Homo sapiens). Kind of experiment: Agonist activity at human FPR2 expressed in human HL60 cells assessed as induction of calcium mobilization measured every 5 secs for 240 secs by Fluo-4-AM dye based fluorometric method relative to WKYMVM. The experiment is classed as functional, cell-based.

For `COc1ccc(NC(=O)N[C@@H](Cc2ccc(C#N)cc2)C(=O)NCC2(c3ccc(OC(F)(F)F)cc3)CC2)cc1`, the Efficacy result in experiment [1], in experiment [2] and in experiment [3] was “inactive” throughout.
Turning to `Cc1ccc(C2(CNC(=O)[C@@H](Cc3ccc(C#N)cc3)NC(=O)Nc3ccc(F)cc3)CC2)cc1F`, the Efficacy result in experiment [1], in experiment [2] and in experiment [3] was “inactive” throughout.
`COc1ccc(NC(=O)N[C@@H](Cc2ccc(C#N)cc2)C(=O)NCC2(c3ccc(C)c(F)c3)CC2)cc1`: the Efficacy in experiment [1] was found to be 55%; in experiment [2], 70%; in experiment [3], 35%.
For `COc1ccc(NC(=O)N[C@@H](Cc2c[nH]c3ccccc23)C(=O)NCC2(c3ccccc3)CC2)cc1`, in that order: 105%, 145% and 125%.
The matching figures for `O=C(Nc1ccccc1)N[C@@H](Cc1c[nH]c2ccccc12)C(=O)NCC1(c2ccccc2)CC1`: 55%, 25% and 35%.
For `O=C(Nc1ccc(F)cc1)N[C@H](Cc1c[nH]c2ccccc12)C(=O)NCC1(c2ccccc2)CC1`, the Efficacy entry in experiment [1], in experiment [2] and in experiment [3] was “inactive” in each case.
For `O=C(Nc1ccc(F)cc1)N[C@@H](Cc1c[nH]c2ccccc12)C(=O)NCC1(c2ccccc2)CC1`, the Efficacy in experiment [1] stood at 60%; in experiment [3] it was 70%. The Efficacy entry in experiment [2] is “inactive”.
Turning to `O=C(Nc1ccccc1)N[C@H](Cc1c[nH]c2ccccc12)C(=O)NCC1(c2ccccc2)CC1`, the Efficacy entry in experiment [1], in experiment [2] and in experiment [3] was “inactive” each time.
With `Cc1ccc(C2(CNC(=O)[C@H](Cc3ccc(C#N)cc3)NC(=O)Nc3ccc(F)cc3)CC2)cc1F`, the Efficacy in experiment [1] is 50%; in experiment [2], 55%; in experiment [3], 65%.
The matching figures for `N#Cc1ccc(C[C@H](NC(=O)Nc2ccc(F)cc2)C(=O)NCC2(c3ccc(OC(F)(F)F)cc3)CC2)cc1`: “inactive”, “inactive” and “inactive”.
For `COc1ccc(NC(=O)N[C@H](Cc2c[nH]c3ccccc23)C(=O)NCC2(c3ccccc3)CC2)cc1`, in that order: “inactive”, “inactive” and 55%.
The matching figures for `COc1ccc(NC(=O)N[C@H](Cc2ccc(C#N)cc2)C(=O)NCC2(c3ccc(C)c(F)c3)CC2)cc1`: “inactive”, “inactive” and “inactive”.
Consider `COc1ccc(NC(=O)N[C@H](Cc2ccc(C#N)cc2)C(=O)NCC2(c3ccc(OC(F)(F)F)cc3)CC2)cc1`, for which the Efficacy entry in experiment [1], in experiment [2] and in experiment [3] was “inactive” throughout.
On to `N#Cc1ccc(C[C@@H](NC(=O)Nc2ccc(F)cc2)C(=O)NCC2(c3ccc(OC(F)(F)F)cc3)CC2)cc1`, for which the Efficacy result in experiment [1], in experiment [2] and in experiment [3] was “inactive” throughout.
